{"source": "patent US8696101B2", "about": "“Photopolymerizable inkjet black ink, and ink cartridge, inkjet printer and printed material using the ink, and method of preparing the ink” (Ricoh Company, Ltd., priority 2011, dated 2014)", "assay": "skin sensitization test (LLNA method), OECD test guide line 429", "format": "in vivo", "details": "photopolymerizable monomers used in clear inks B to K; SI less than 3 = no problem in skin sensitization", "procedure": "The LLNA method is a skin sensitization test specified as OECD test guide line 429, and as shown on page 55 in “Functional Materials” Vol. 25, No. 9 published in September, 2005, the skin sensitization is determined to have no problem when Stimulation Index (SI value) showing a degree of the skin sensitization is less than 3.", "data": [{"substance": "Ethyleneoxide-modified bisphenol A diacrylate", "values": [{"measurement": "Stimulation Index (SI value)", "result": 1.2}]}]}
